Reference: patent US9399017B2, “Peptide pharmaceutical for oral delivery” (Enteris BioPharma, Inc., priority 2007, dated 2016)

Assay: PTH(1-31)NH2 content, stability and recovery in tablets following manufacture
Type: physicochemical
Conditions: for PTH(1-31)NH2 Impurity 1 / PTH(1-31)NH2 Impurity 2: oxidation impurity; for PTH(1-31)NH2 Purity: tablets following manufacture
Procedure: PTH(1-31)NH2 (2 mg) and lauroyl-L-carnitine (50 mg) were dispersed in tablets prepared as described in Table 2 with and without 1 mg sodium pyruvate. The tablets were sealed with a non-ionic subcoat and an L30D-55 enteric coat. The PTH(1-31)NH2 content of the tablets was analyzed following their manufacture.

## CC[C@H](C)[C@H](NC(=O)[C@H](CCC(=O)O)NC(=O)[C@H](CO)NC(=O)[C@@H](NC(=O)[C@@H](N)CO)C(C)C)C(=O)N[C@@H](CCC(N)=O)C(=O)N[C@@H](CC(C)C)C(=O)N[C@@H](CCSC)C(=O)N[C@@H](Cc1c[nH]cn1)C(=O)N[C@@H](CC(N)=O)C(=O)N[C@@H](CC(C)C)C(=O)NCC(=O)N[C@@H](CCCCN)C(=O)N[C@@H](Cc1c[nH]cn1)C(=O)N[C@@H](CC(C)C)C(=O)N[C@@H](CC(N)=O)C(=O)N[C@@H](CO)C(=O)N[C@@H](CCSC)C(=O)N[C@@H](CCC(=O)O)C(=O)N[C@@H](CCCNC(=N)N)C(=O)N[C@H](C(=O)N[C@@H](CCC(=O)O)C(=O)N[C@@H](Cc1c[nH]c2ccccc12)C(=O)N[C@@H](CC(C)C)C(=O)N[C@@H](CCCNC(=N)N)C(=O)N[C@@H](CCCCN)C(=O)N[C@@H](CCCCN)C(=O)N[C@@H](CC(C)C)C(=O)N[C@@H](CCC(N)=O)C(=O)N[C@@H](CC(=O)O)C(=O)N[C@H](C(N)=O)C(C)C)C(C)C [PTH(1-31)NH2]
Sodium Pyruvate 0 mg
  PTH(1-31)NH2 Impurity 1: 3.7%
  PTH(1-31)NH2 Impurity 2: 5.4%
  PTH(1-31)NH2 Purity: 88.1%
Sodium Pyruvate 1 mg
  PTH(1-31)NH2 Impurity 1: 0.0%
  PTH(1-31)NH2 Impurity 2: 0.0%
  PTH(1-31)NH2 Purity: 98.1%
